# Reference: PubChem BioAssay AID729 (The Scripps Research Institute Molecular Screening Center, 2007)
# The chains behind the UniProt entries cited, without tags or fusion partners.
# UniProt O95136, whole entry: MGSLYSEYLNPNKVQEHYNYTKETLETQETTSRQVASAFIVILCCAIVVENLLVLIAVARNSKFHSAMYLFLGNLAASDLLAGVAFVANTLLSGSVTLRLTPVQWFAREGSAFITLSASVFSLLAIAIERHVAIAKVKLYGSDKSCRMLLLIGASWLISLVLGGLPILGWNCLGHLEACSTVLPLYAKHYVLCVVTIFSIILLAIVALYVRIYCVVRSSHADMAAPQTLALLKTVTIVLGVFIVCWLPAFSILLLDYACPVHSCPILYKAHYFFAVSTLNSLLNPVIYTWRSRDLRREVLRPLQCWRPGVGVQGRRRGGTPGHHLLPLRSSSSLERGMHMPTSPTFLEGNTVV
# The entries are a selection whose mix differs from that of the whole data set. Activity calls are given as the source filed them. Rule as the data show it: active = activation above about 16%; inactive = the rest.
# Biological target: Sphingosine 1-phosphate receptor 2 (Homo sapiens) (UniProt O95136)
# Assay: activation of human S1P2 receptor – cell-based, primary screen (AID 729);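 also: 0% = vehicle low control and 100% = maximal reference agonist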
# Conditions: S1P2-expressing cell line, agonist reporter read-out; at 4.5 µM; active compounds read high
row,Structure (SMILES),activation
1,N#CC1(Nc2ccccc2)CCN(CCc2ccccc2)CC1,inactive: -4.9%
2,O=C(NCC1(N2CCOCC2)CCCCC1)c1cc(=O)[nH]c2ccccc12,inactive: -7.82%
3,CN1CCC(Nc2cccc(F)c2)CC1,inactive: -2.94%
4,O=C(OC1CN2CCC1CC2)C1c2ccccc2Oc2ccccc21 (stereo not given),inactive: 0.32%
5,O=C(NCC1(N2CCOCC2)CCCCC1)c1cc2ccccc2o1,inactive: -5.94%
6,COc1ccc(NC2CCN(CCc3ccccc3)CC2)c(OC)c1,inactive: -6.41%
7,CCOc1ncccc1C(=O)NCC1(N2CCOCC2)CCCCC1,inactive: -4.7%
8,CCC(CO)(C(=O)OC1CN2CCC1CC2)c1ccccc1 (stereo not given),inactive: -4.21%
9,N/C(=N\O)c1c(N)no[n+]1[O-],inactive: -5.7%
10,c1ccc(CN2CCC(Nc3ccccc3)CC2)cc1,inactive: -8.53%
